Legend:
[1] = target: P. falciparum Hsp90 (Plasmodium falciparum, UniProt Q8IC05); assay: biochemical; format: binding
[2] = target: P. falciparum Grp94 (Plasmodium falciparum, UniProt Q8I0V4); assay: biochemical; format: binding

Sequences of proteins named here, by UniProt entry; tags and fusion partners are left off.
UniProt Q8IC05, entry or part of it: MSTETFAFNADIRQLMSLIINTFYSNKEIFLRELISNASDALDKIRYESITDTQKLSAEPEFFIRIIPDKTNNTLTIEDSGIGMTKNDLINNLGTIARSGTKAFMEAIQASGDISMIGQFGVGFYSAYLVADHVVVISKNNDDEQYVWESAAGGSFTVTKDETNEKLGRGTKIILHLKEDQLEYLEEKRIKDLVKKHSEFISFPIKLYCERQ
UniProt Q8I0V4, entry or part of it: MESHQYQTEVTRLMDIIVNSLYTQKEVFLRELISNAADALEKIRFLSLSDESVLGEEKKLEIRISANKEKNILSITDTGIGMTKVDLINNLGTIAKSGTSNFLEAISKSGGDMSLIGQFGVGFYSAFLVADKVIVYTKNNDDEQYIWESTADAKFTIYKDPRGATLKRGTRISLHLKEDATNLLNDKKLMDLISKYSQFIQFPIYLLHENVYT

Question: How did the Kd [1] turn out when CC(C)NCCCn1c(Sc2cc3c(cc2I)OCO3)nc2c(N)ncnc21 [PUH71] was run?
Answer: The Kd was 15 nM.

Question: And the Kd [2]?
Answer: Its Kd is 6.43 µM.

Question: And the ka [2]?
Answer: The ka was 5830 M⁻¹ s⁻¹.

Question: And the kd [2]?
Answer: Its kd is 0.006 s⁻¹.
